Test system: CD3+ T cell proliferation
Experiment: Mixed lymphocyte reaction (MLR) in vitro proliferation assay
Type: cell-based, human
Conditions: 10 μg/mL; 6 days; as compared to spontaneous proliferation without immunosuppressive agents (MLR); two responder subjects
Method: Mixed Lymphocyte reactions (MLR) were performed in the presence or absence of different immunosuppressive drugs to test their inhibitory effect on T cell proliferation, following conventional methodology (Levitsky J, et al., “Allospecific regulatory effects of sirolimus and tacrolimus in the human mixed lymphocyte reaction”, Transplantation, 2011, vol. 91(2), pp. 199-206).
Briefly, peripheral blood mononuclear cells (PBMC) from healthy controls were used as responder cells. CD3^+-depleted splenocytes extracted from deceased donors and mature dendritic cells (DCs) were extracted with CD2 positive selection cocktail (Stem Cell Technologies, France) following manufacturer's instructions and they were used as stimulators in the assay. […]
First, PBMC were stained with carboxyfluorescein succinimidyl ester (CFSE) (Lloberas N, et al., “Dendritic cells phenotype fitting under hypoxia or lipopolysaccharide; adenosine 5′-triphosphate-binding cassette transporters far beyond an efflux pump”, Clin Exp Immunol., 2013, vol. 172(3), pp. 444-54). […] At day 6, cells were harvested and stained for CD3-APC and CD4-PE (BD Bioscience, San Jose, Calif., USA) 20 minutes in the dark following manufacturer's instructions, and T-cell proliferation were analyzed by flow cytometry (BD FACS CANTO 11, San Jose, Calif., USA) using Facs Diva software and following manufacturer's instructions. […]

Abatacept [CTLA4-Ig, reference compound]
decrease of CD3+ cells proliferation: 40%-80%

— patent publication US20220089679A1, “FUSION PROTEIN WITH IMMUNOSUPPRESSIVE ACTIVITY” (FUNDACIÓ INSTITUT D'INVESTIGACIÓ BIOMÈDICA DE BELL, priority 2019, published 2022)
